Assay [1] has as its target T1, hCA I (Homo sapiens, UniProt P00915).
T1 construct: gene CA1; recombinant, obtained in-house
As to the kind of experiment: stopped-flow CO2 hydrase assay. Type of assay: biochemical. Conditions: CO2 […]; […] HEPES pH […] Na2SO4, phenol red; […] min preincubation at room temperature; read-out: KI (nM) ^1 / CAI.

Protein sequences, listed by entry. Tags and fused reporters are not part of them. Residues count along the entry.
UniProt P00915, 2-261: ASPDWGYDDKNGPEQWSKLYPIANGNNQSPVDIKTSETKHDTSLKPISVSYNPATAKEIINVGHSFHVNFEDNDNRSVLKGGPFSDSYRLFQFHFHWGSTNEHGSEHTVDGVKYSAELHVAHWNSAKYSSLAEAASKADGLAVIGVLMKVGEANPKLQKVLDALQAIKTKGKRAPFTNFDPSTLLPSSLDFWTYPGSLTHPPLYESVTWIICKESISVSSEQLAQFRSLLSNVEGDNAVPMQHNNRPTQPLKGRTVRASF

The target of assay [2] is T2, hCA II (Homo sapiens, UniProt P00918).
T2 construct: gene CA2; recombinant, obtained in-house
The experiment in a line: stopped-flow CO2 hydrase assay. In kind it is biochemical. The following applies: CO2 […]; […] HEPES pH […] Na2SO4, phenol red; […] min preincubation at room temperature; read-out: KI (nM) ^1 / CAII. The source says: stopped-flow CO2 hydrase assay on hCA II

This is an account of results in PMC9822402, “Investigation on Hydrazonobenzenesulfonamides as Human Carbonic Anhydrase I, II, IX and XII Inhibitors” (Molecules, 2022).

Regarding “(E)-4-(4-(2-(4-(diethylamino)benzylidene)hydrazinecarbonyl)piperidine-1-carbonyl)benzenesulfonamide [compound 29]”, the values for the Ki in assay [1] and in assay [2] were 45 nM and 4.27 nM, respectively.
The like results for “(E)-4-(4-(2-(4-(dimethylamino)benzylidene)hydrazinecarbonyl)piperidine-1-carbonyl)benzenesulfonamide [compound 28]” were, in that order, 1060 nM and 5.39 nM.
